According to patent US20050175976A1, “Meiosis activating sterol augments implantation rate” (priority 1999, published 2005):
Marks after values point to notes of the source that are not given here.

System: mouse cumulus enclosed oocytes
Experiment: Resumption of meiosis (GVBD) of mouse oocytes cultured in vitro with FSH and/or EGF
Format: cell-based
Conditions: FSH 10 IU/l, 22-24 h, HX-medium
Method: Immature female mice (B6D2-F1 strain C57B1/2J) were kept under controlled light and temperature conditions with free access to food and water. Ovarian stimulation was performed when the mice weighed 10-16 grams and consisted of an intra-peritoneal injection of Gonadoplex (Leo, Copenhagen, Denmark) containing (7.5 U/mouse). The animals were killed by cervical dislocation 44-48 h later. The media used for the culture of oocytes consisted of α-Minimum Essential Medium (α-MEM), with Earles Balanced Salt Solution (EBSS), 4 mM hypoxantine (HX), 3 mg/ml Bovine Serum Albumin, 0.23 mM pyruvate, 2 mM glutamine, 100 IU/ml penicillin and […] streptomycin. The ovaries were recovered and placed in HX-medium where an initial cleaning and removal of connective tissue was performed. Oocytes were isolated from the ovaries by puncturing individual follicles using 25 gauge needles. Isolation of oocytes were performed in HX-medium to prevent resumption of meiosis until the tests were ready to be performed. The oocytes were then washed 3 times in control medium before the start of each experiment. […] By the end of the culture period, germinal […] breakdown (GVBD) was scored by examining the oocyte in an inverted microscope. The percentage of oocytes with GVBD per total number of oocytes (% GVBD) was calculated.

Substance: FSH: follicle stimulating hormone, glycoprotein with follicle-stimulating activity
- % GVBD (162 oocytes): 45^b %
- No. of GVBD (of 162 oocytes): 73
